Results taken from patent US6180599A, “Pharmaceutical composition, containing medium-chain fatty acids as active ingredients, for dental caries and periodontal disease” (priority 1997, dated 2001).

Legend:
S. mutans BHT = assay: Inhibitory effect on extracellular polysaccharide synthesis, standard strain; assay type: cell-based, Streptococcus mutans; conditions: 1 mM; 2% glucose; 24-48 hours; control 31.5 ± 3.7
Experimental: (§1) In order to identify the effect by which medium-chain fatty acids inhibit plaque matrix formation, inhibitory effect and concentration of extracellular polysaccharide synthesis were determined in seven kinds of standard cariogenic plaque bacteria. Also, the inhibitory effect of extracellular polysaccharide synthesis for 20 kinds of cariogenic plaque bacteria, separated from the human oral cavity, was measured. Liquid culture media used were: Todd-Hewitt broth of Streptococcus, Lactobacilli MRS broth of Lactobacillus and Brain Heart Infusion broth of Actinomyces. 0.1 ml of bacterial (or cell) suspension (OD600 =0.5) of each bacteria was inoculated to 5.9 ml of culture media containing 1 mM of medium-chain fatty acids and 2% of glucose, and was cultured for 24^~ 48 hours in 10% CO2 incubator. After culturing, the resultant was centrifuged to precipitate at 5,000×g for 15 minutes, then soluble extracellular polysaccharide was separated and purified from the supernatant and insoluble extracellular polysaccharide from the cell pellet, and then these were quantified.

A. viscosus ATCC 15987 = assay: as above; assay type: cell-based; conditions: Actinomyces viscosus, ATCC15987; 1 mM; an increase vs control, not an inhibition; read-out: Inhibitory rate, soluble (increase)
Experimental: as §1

**Q.** For `CCCCCCCCC(=O)[O-].[Na+]` [C9, sodium nonanoate], which “Extracellular polysaccharide, soluble” value (S. mutans BHT) is on record?
**A.** Its value is 8.0 ± 1.1 µg/mL.

**Q.** And the inhibition at 1000 µM (A. viscosus ATCC 15987)?
**A.** The inhibition at 1000 µM was 8%.
